# E-selectin induc – E-selectin induction on HUVECs | P16581 | HUVEC E-selectin immunofluorescence imaging; normalized: neutral wells 0, TNF-alpha wells 100 | activation, % at 7.58 µM | 260,000 compounds, 0.37% hits;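 active = mean E-selectin-positive cell signal at least 10% of the positive control, reached in at least 60% of replicates, without over 20% cell loss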
#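 Read-out: % PE-positive cells | Test system: HUVEC | Doses: One compound dose added by pin transfer | Buffer or medium: EGM-2 over gelatin coat | Signal: Immunofluorescence imaging | Benchmarks: TNF-alpha, DMSO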
# Yeast UUG start – alters start codon recognition fidelity in yeast; S. cerevisiae UUG-firefly luciferase reporter, luminescence/redox ratio; activity score, % at 18.7 µM; actives 0.13% (n = 350,000); AID 602363;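 active = replicate mean at a twofold rise or more, about +100% in these data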;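 also: firefly luciferase made from a UUG start codon reports start codon fidelity; reporter light over untreated wells divided by growth signal over untreated wells; some hits fall short of that in this replicate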
# Statin myotox sup – suppressors of simvastatin-induced myotoxicity in C2C12 myotubes; ATP luminescence, 48 h; scaled: DMSO 0, geranylgeraniol control 100; rescue of ATP level, % at 7.49 µM; 330,000 compounds, 0.78% hits;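 active = mean ATP rescue above about 67%, or every replicate alone reaching that limit, limit read from the data, passing the limit was not always enough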;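 note: myotubes were challenged with 10 µM simvastatin during compound exposure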
# esBAF inh – blocks esBAF chromatin remodeling in mouse ES cells. Bmi1-luciferase knock-in reporter, 24 h; 100% = twice the neutral-well signal. reporter increase, % at 12.5 µM. 350,000 compounds, 2% hits; in the data active = activation above about 40%;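 note: 0% = median of the plate's neutral control wells and 100% = double that signal; a rise in the Bmi1 reporter signal indicates esBAF inhibition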
# PGC1a acetyl inh – PGC1a acetylation modulation, inhibitor mode. 350,000 compounds, 0.17% hits. inhibition, % at 15.6 µM. AID 651687. U2OS PGC1a acetylation, AlphaScreen anti-acetyl-lysine; with virally co-expressed GCN5 acetyltransferase;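 active = every replicate shows inhibition of at least 40%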;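 note: 0% = neutral control wells and 100% = positive control wells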
# PglD inh – inhibitors of Campylobacter jejuni PglD acetyltransferase | purified PglD enzyme, DTNB colorimetric CoA detection | inhibition, % at 12.5 µM | 360,000 compounds, 0.098% hits; in the data active = inhibition above about 16%, passing the limit was not always enough
# * hit, by the source's call; / = not tested or not shown. The list is not random: actives were taken first. Their share in the collection is about 2.8%.
SMILES,E-selectin induc,Yeast UUG start,Statin myotox sup,esBAF inh,PGC1a acetyl inh,PglD inh
O=C(NCC1CC1)[C@@H]1[C@@H](CO)[C@@H]2Cn3c(ccc(-c4cccnc4)c3=O)[C@H]1N2C(=O)C1CCCCC1,0,0,-9,-2,/,0
CCN(CC)C(=O)c1nc(-c2cccc3ccccc23)no1,-1,-12,-1,70*,3,1
CCN(CC)C(=O)c1c2c(nc3ccccc13)-c1ccccc1CC2,/,/,/,/,-4,/
O=S1(=O)N=C(N2CCN(c3ccc(F)cc3)CC2)c2ccccc21,/,-12,-7,46*,-9,0
O=C(c1ccccc1)C1OC1C(=O)c1ccccc1 (configuration not stated),-2,-34,1,53*,-77,1
COc1ccc(/C=C/C2=NC(=C\N(C)C)/C(=O)O2)cc1,/,6,114*,51*,-3,-15
COc1cc(CN2CCN(Cc3ccccc3C(F)(F)F)CC2)cc(OC)c1OC,0,-3,9,9,63*,-3
O=S(=O)(NCc1csc(-c2cccs2)n1)c1ccc(Cl)cc1,52*,3,24,-4,18,1
O=S(=O)(NCc1csc(-c2cccs2)n1)c1cccc(C(F)(F)F)c1,60*,1,131*,-5,-20,2
Cc1ccc(S(=O)(=O)NCc2csc(-c3cccs3)n2)cc1,7,/,/,/,/,/
COc1cccc(C(=O)Nc2ccc3c(c2)C(=O)N(C)C[C@H](OC)[C@H](C)CN(C(=O)C2CCCC2)[C@@H](C)CO3)c1,0,7,-3,-2,/,4
CCSc1cc(C)nc2c(-c3ccc(Cl)cc3)c(C)nn12,/,-11,93*,1,-1,6
Cc1cc(C)n2nc(C)c(-c3ccc(Cl)cc3)c2n1,/,-12,-31,-14,9,-7
CNc1cncc(-c2ccc(O)cc2)n1,0,-17,-4,13,8,5
CNc1cncc(-c2ccc(OC)cc2)n1,0,-27,-2,41*,-5,-3
Cc1nc2c3cc(Cl)ccc3n(CCN3CCCCC3)c2s1,/,-3,-35,51*,-15,4
COc1ccc(OC(=O)N(C)C[C@@H]2OCc3cn(nn3)CCCC(=O)N([C@H](C)CO)C[C@@H]2C)cc1,1,/,-3,0,2,/
O=C1/C(=C/c2ccc(N3CCOCC3)o2)SC(=Nc2ccccc2)N1CCc1c[nH]c2ccccc12,/,-22,-169,-34,62*,-2
C[C@H](NC(=O)C[C@H]1C[C@@H]2c3cc(NC(=O)CC4CC4)ccc3O[C@@H]2[C@@H](CO)O1)c1ccccc1,0,1,11,1,-10,-1
Nc1nonc1C(=O)N/N=C\c1cc2c(cc1Cl)OCO2,1,-6,-6,17,/,2

# As a short view, some entries already given.
SMILES,E-selectin induc,Yeast UUG start,Statin myotox sup,esBAF inh,PGC1a acetyl inh,PglD inh
COc1ccc(OC(=O)N(C)C[C@@H]2OCc3cn(nn3)CCCC(=O)N([C@H](C)CO)C[C@@H]2C)cc1,1,/,-3,0,2,/
O=C1/C(=C/c2ccc(N3CCOCC3)o2)SC(=Nc2ccccc2)N1CCc1c[nH]c2ccccc12,/,-22,-169,-34,62*,-2
C[C@H](NC(=O)C[C@H]1C[C@@H]2c3cc(NC(=O)CC4CC4)ccc3O[C@@H]2[C@@H](CO)O1)c1ccccc1,0,1,11,1,-10,-1
Nc1nonc1C(=O)N/N=C\c1cc2c(cc1Cl)OCO2,1,-6,-6,17,/,2

# The results go on:
SMILES,E-selectin induc,Yeast UUG start,Statin myotox sup,esBAF inh,PGC1a acetyl inh,PglD inh
Cn1cc(Cl)c(C(=O)N/N=C/c2ccc3c4c(cccc24)CC3)n1,/,-15,5,63*,1,-1
Cn1cc(Cl)c(C(=O)N/N=C/c2ccc(OS(=O)(=O)c3ccccc3)cc2)n1,/,0,-12,6,-5,1
Cn1cc(Br)c(C(=O)N/N=C/c2cc3c(cc2Cl)OCO3)n1,0,-11,3,47*,/,-4
Cc1ccsc1/C=C(\CC(=O)O)c1nc2ccccc2o1,/,-14,-3,24,/,-1
O=C(O)C/C(=C\c1cc(Br)cs1)c1nc2ccccc2o1,/,9,7,83*,-4,4
Cc1cc(C(=O)Nc2ccc(C)c(C)c2)n(-c2ccccc2)n1,53*,-4,11,12,-11,-4
COc1ccc(NS(=O)(=O)c2ccc(SC)cc2)cc1,/,-6,7,0,-1,2
CSc1ccc(S(=O)(=O)Nc2ccc(F)cc2)cc1,/,/,93*,4,-8,/
C[C@H](CO)N1C[C@H](C)[C@H](CN(C)C(=O)CN(C)C)Oc2ncc(-c3ccc(C(=O)N(C)C)cc3)cc2C1=O,0,-5,15,0,13,1
O=C1C=C(c2ccccc2)C[C@H](c2cccs2)[C@H]1n1cnc([N+](=O)[O-])c1,/,-10,137*,-9,5,7
O=C1C=C(c2cccs2)CC(c2cccs2)C1n1cnc([N+](=O)[O-])c1 (configuration not stated),/,-18,0,-4,6,-1

# Assay outcomes as filed in PubChem BioAssay.
